Chains of the proteins cited; added tags and fusions are not shown. Residues count along the entry.
UniProt P00915, 2-261 limits assumed: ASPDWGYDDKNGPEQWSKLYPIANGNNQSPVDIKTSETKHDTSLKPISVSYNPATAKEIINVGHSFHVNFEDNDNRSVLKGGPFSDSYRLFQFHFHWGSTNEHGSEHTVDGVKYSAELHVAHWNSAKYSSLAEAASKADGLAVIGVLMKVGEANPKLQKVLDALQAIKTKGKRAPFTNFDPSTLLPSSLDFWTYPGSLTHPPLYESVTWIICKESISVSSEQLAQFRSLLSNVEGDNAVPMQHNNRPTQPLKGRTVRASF
UniProt P35218, 39-305 limits assumed: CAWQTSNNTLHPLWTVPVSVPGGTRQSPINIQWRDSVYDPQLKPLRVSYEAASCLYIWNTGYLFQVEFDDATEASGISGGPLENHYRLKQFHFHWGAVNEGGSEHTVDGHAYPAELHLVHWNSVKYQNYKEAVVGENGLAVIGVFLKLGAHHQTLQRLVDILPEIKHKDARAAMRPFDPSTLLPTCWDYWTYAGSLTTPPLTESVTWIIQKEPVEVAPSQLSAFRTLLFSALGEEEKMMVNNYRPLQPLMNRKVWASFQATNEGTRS
UniProt P22748, 19-284 limits assumed: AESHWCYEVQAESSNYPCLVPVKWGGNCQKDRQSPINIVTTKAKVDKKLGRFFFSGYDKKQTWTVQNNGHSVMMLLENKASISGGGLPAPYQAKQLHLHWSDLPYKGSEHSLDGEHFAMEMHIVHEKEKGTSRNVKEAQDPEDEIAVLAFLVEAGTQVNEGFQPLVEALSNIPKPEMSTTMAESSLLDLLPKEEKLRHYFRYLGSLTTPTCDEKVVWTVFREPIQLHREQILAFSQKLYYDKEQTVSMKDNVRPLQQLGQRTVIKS

In BindingDB's records for 15780631 (Universit&#224, 2005):

What was measured:
[1] = target: Carbonic anhydrase 2 (Homo sapiens, UniProt P00918); assay: Inhibitory constant against human isozymes carbonic anhydrase II for the CO2 hydration reaction at 20 C
[2] = target: Carbonic anhydrase 1 (Homo sapiens, UniProt P00915)
[3] = target: Carbonic anhydrase 5A, mitochondrial (Homo sapiens, UniProt P35218); assay: Inhibitory constant against human isozymes carbonic anhydrase V for the CO2 hydration reaction at 20 C
[4] = target: Carbonic anhydrase 9 (Homo sapiens, UniProt Q16790); assay: Inhibitory constant against human isozymes carbonic anhydrase IX for the CO2 hydration reaction at 20 C
[5] = target: Carbonic anhydrase 4 (Homo sapiens, UniProt P22748); assay: Inhibitory constant against human isozymes carbonic anhydrase IV for the CO2 hydration reaction at 20 degree C

N#[C][Pd-2]([C]#N)([C]#N)[C]#N
Ki [1]: 1.22 mM | Ki [2]: 1.27 mM | Ki [3]: 2 mM | Ki [4]: 0.89 mM | Ki [5]: 1.69 mM

Only a part of the results on these compounds is given; other tests are left out.
